The values that follow are results of earlier work, collected in PMC12412453 (Toxicology, 2021).

For data set [1] the following is noted: reported findings; ref References column of Table 1; cited from earlier work.
For data set [2] the following is noted: reported findings; ref References column of Table 1; cited from earlier work. This is another data set of the same source.

Turning to `COc1cc2c(c(OC)c1OC)-c1ccc(OC)c(=O)cc1[C@@H](NC(C)=O)CC2` [Colchicine], in data set [1], the “Genotoxicity assay findings in vitro” value is listed as “(+) for MN, CA, MLA; (−) for comet”. The “Genotoxicity assay findings in vivo” value in data set [2] was “(+) for MN in BM and liver”.
